# Yeast mating assay 1: variants of the scFv Ab-14

The measurements come from Engelhart et al. 2022 (doi:10.1038/s41597-022-01779-4) through the FLAb antibody collection.

Antigen: PDVDLGDISGINAS, a 14-residue peptide of the SARS-CoV-2 spike HR2 region.

Ab-14 is the parent antibody, in scFv form: VH, then a (GGGGS)3 linker, then VL. The light chain is unchanged in all variants.
VH: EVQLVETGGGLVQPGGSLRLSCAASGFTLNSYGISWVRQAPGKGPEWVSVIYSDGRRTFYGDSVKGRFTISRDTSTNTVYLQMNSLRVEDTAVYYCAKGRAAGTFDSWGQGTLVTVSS
VL: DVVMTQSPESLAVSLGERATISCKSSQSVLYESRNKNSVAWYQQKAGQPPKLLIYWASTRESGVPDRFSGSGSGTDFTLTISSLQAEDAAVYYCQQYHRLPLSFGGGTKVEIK

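AAYL49 was designed without a model: most single CDR substitutions and a random sample of double and triple ones. The assay is AlphaSeq: two haploid yeast populations carry antibody and antigen on their surface. Mating (16 h, 30 °C) was followed by selection of diploids and sequencing of their barcodes. Read counts were normalised to the haploid input and turned into Kd by a linear fit to BCL2-family pairs of known affinity, for each replicate. There are three technical replicates.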

The parent's heavy chain CDRs are GFTLNSYGIS, VIYSDGRRTFYGDSVK, GRAAGTFDS; each variant's own CDRs replace them letter for letter. Numbers give log10(Kd / nM), so 0 is 1 nM and 3 is 1 µM. Smaller is tighter. Averages over replicates are reported, and they cover detected replicates only. An entry "no signal" has no value in the source: the pair was not observed among the diploids in any replicate. This suggests poor binding but is not conclusive.

| CDR-H1 | CDR-H2 | CDR-H3 | mean log10 Kd (nM) | replicates with signal |
|---|---|---|---|---|
| GFTINSYGIS | VIYRDGRRTFRGDSVK | GRAAGTFDS | no signal | 0 of 3 |
| GFTLNSQGIS | VHYSDGRRTHYGDSVK | GRAAGTFDS | no signal | 0 of 3 |
| GFTLNSYGIS | VIYSDLRRTFYGDSTK | GRTAGTFDS | no signal | 0 of 3 |
| GFTLNSYGIP | VIYSDGRRTFYGDSVK | YNAAGTFDS | no signal | 0 of 3 |
| GKTLNSYGIS | VIYSDGRRTFYFVSVK | GRAAGTFDS | no signal | 0 of 3 |
| GFTLNSYGIS | VIYSDGLRTFYGDSVK | GRAACTEDS | 4.51 | 2 of 3 |
| GFTLNSYGIS | VAYSDGRRTFYGDNVK | GHAAGTFDS | no signal | 0 of 3 |
| GFTLNSYGIS | VQYSHGRRTFYGDSVK | GRSAGTFDS | 4.34 | 2 of 3 |
| GFTLNRQGIS | VIYSDGRRTCYGDSVK | GRAAGTFDS | 2.78 | 3 of 3 |
| GFTLNSKGIS | VIYSDGRRTFYGDSVK | GRAASTEDS | 3.60 | 1 of 3 |
| GFTLNSYGIS | VIYSDGRRFFYGDSVK | GRACGTFCS | 2.70 | 1 of 3 |
| LFTLNSYGIS | VIYSDGRRTFYGDIFK | GRAAGTFDS | 2.26 | 3 of 3 |
| GFTDNSYGIS | VILSDGRRTFCGDSVK | GRAAGTFDS | no signal | 0 of 3 |
| GFTLNSYGIS | VIYSDGRRTFYGDQVK | GRAAGTMGS | 3.45 | 1 of 3 |
| GFTLNSYGIS | VIYSDGRMTFYGDSMK | GRAAGTPDS | 4.55 | 1 of 3 |
| GFTLNSYGIE | VIYSDGERTFYGDSVK | GRAAGTFDS | no signal | 0 of 3 |
| GFTLNSQGIS | DIYSDGRRNFYGDSVK | GRAAGTFDS | 4.93 | 2 of 3 |
| GFTLNSIGIS | VRYSDGRRTFYGDSVK | GRAALTFDS | no signal | 0 of 3 |
| NFTLNSYGQS | VIYSDGRRTFEGDSVK | GRAAGTFDS | no signal | 0 of 3 |
| TFTLNSYGIS | VIYSDGRRTFYGDSVK | GRMAGTFDW | 2.58 | 2 of 3 |
| GFTLNSYGIS | VIYSDQCRTFYGDSVK | GRAAGTFDS | no signal | 0 of 3 |
| GFTLMSYGIS | VIYSDGRRTFYIDSVK | GRAAGTFQS | no signal | 0 of 3 |
| GFTLNSYGIS | VNLSDGRRTFYGDSVY | GRAAGTFDS | no signal | 0 of 3 |
| GFTLNSYTHS | VIYSDGRRTFYGDSVK | GRAAGTFDS | 3.69 | 1 of 3 |
| GFTLKSYGIV | VIYSDGRRTFYGDSVK | GGAAGTFDS | 4.15 | 2 of 3 |
| GFTLNSYYIS | VIQSDGRRTFPGDSVK | GRAAGTFDS | 4.12 | 2 of 3 |
| GFTCNSYLIS | VIYSDGRRTYYGDSVK | GRAAGTFDS | no signal | 0 of 3 |
| GFTLRSYGIS | VIYSIGRRWFYGDSVK | GRAAGTFDS | 3.49 | 2 of 3 |
| GFILNIYGIS | VIYSDGRRTFDGDSVK | GRAAGTFDS | no signal | 0 of 3 |
| GFTLNSFGIS | VISSDGRRTFYGDSVK | GRAAGTFSS | no signal | 0 of 3 |
| GFHLNSYGIS | VIYSDGRRTFYGDSYR | GRAAGTFDS | 2.42 | 3 of 3 |
| GFCLNSYGIS | VIYSDGRRTFYKDSVK | GRAAGVFDS | 2.05 | 3 of 3 |
| GFTGNAYGIS | VIYSDGRRTFYGDSVK | GRAAGVFDS | no signal | 0 of 3 |
| GFTLWSYGIS | LIYSDGRRTFYGDSVK | GRAAGTFDA | 4.21 | 1 of 3 |
| GHTLNSYGIS | VIGSDGRRTFYGDSVK | GRAAGTFDS | no signal | 0 of 3 |
| GFTLNSYGIS | NIYSDGSRTFYGDSVK | GSAAGTFDS | 3.84 | 2 of 3 |
| GFTLNSYGIS | VIYDDMRRTFYGDSVK | GRAANTFDS | no signal | 0 of 3 |
| GFILNSYGIS | VKYSDGRRTFYGDSVK | ARAAGTFDS | no signal | 0 of 3 |
| GFTLNSYGIS | VIYSDGWRTVYGQSVK | GRAAGTFDS | 2.47 | 2 of 3 |
| GFTLNSYGIS | YIYSDCRRTFYGDSVK | GRAAGTFDS | no signal | 0 of 3 |
| GFTLNSYGIS | KIYSDGRRTFYGDSVK | GRAAGTGFS | 4.59 | 1 of 3 |
| GFTLNSYGIS | VIYSDGRRTFWGWSVK | GRAAGTFFS | 4.17 | 2 of 3 |
| GFTLNSQGIS | VIYSDKRRTTYGDSVK | GRAAGTFDS | 4.07 | 1 of 3 |
| GFTLNSGGIS | VIYSDDRRTFEGDSVK | GRAAGTFDS | 4.81 | 1 of 3 |
| GFSNNSYGIS | WIYSDGRRTFYGDSVK | GRAAGTFDS | no signal | 0 of 3 |
| GFILNSYSIS | VIYSDGRRTFYGDSVK | GFAAGTFDS | no signal | 0 of 3 |
| GFTLNSTGIS | VIYSDGRFTFYGDSVK | GRAAGTFES | 4.67 | 1 of 3 |
| GFTVNSYGIS | VIYSDGRRTFYGDSCP | GRAAGTFDS | no signal | 0 of 3 |
| GFTLNSMEIS | DIYSDGRRTFYGDSVK | GRAAGTFDS | no signal | 0 of 3 |
| GFTLRSYGIS | VIYSDGRRTFYHDSVK | GRAYGTFDS | 3.24 | 2 of 3 |
| GFTLNSRGIS | PIYSDGRITFYGDSVK | GRAAGTFDS | 6.13 | 1 of 3 |
| GFTLLSYGIS | VIYSDGIRTFYGTSVK | GRAAGTFDS | no signal | 0 of 3 |
| GFTLNSYGCS | VIYSDGRRTVYCDSVK | GRAAGTFDS | no signal | 0 of 3 |
| GFTLNPYGIS | VIYSDGRRTKPGDSVK | GRAAGTFDS | no signal | 0 of 3 |
| GFTQNSYGIS | VIYSDGRRAFYGDSIK | GRAAGTFDS | 3.52 | 1 of 3 |
| TFTLNSYGIS | VIYSDGRRTFYGDSVM | GRAAGTFDI | 3.02 | 2 of 3 |
| GFTLNSYGIS | VIYSDIRRPFYGWSVK | GRAAGTFDS | no signal | 0 of 3 |
| GFTLNSYGIS | VITSDGRRTFYGDSPK | GRAKGTFDS | no signal | 0 of 3 |
| GFTLNSYAIS | VIYSDGRRTFYGDVVK | GRAAPTFDS | no signal | 0 of 3 |
| GFTLNSYGIS | VISSDGRRTFYGSSVK | GRAAGTFQS | 5.92 | 1 of 3 |
| NFTLNSYGIS | VNYSDGRRTFYGDSVK | GRACGTFDS | no signal | 0 of 3 |
| GFTLNSYGIS | VIYSDGRRTFMGNTVK | GRAAGTFDS | 2.24 | 3 of 3 |
| GFTLNSVGIS | VIYSDGRRTFYGDSHK | GRAAGTFDS | 3.93 | 2 of 3 |
| GFTVNSYGIS | VIYSDGRRTHYGDSVK | GQAAGTFDS | 1.68 | 3 of 3 |
| GFTLNSYGIN | VIYSEGRRTFYGDSVK | GRAAGSFDS | no signal | 0 of 3 |
| FFTLNSYGIS | VIYSDGRRTFYGDSVD | GRAARTFDS | no signal | 0 of 3 |
| GETLNSYGIS | VIYSFGRRTFYGDSVK | GRCAGTFDS | 4.26 | 2 of 3 |
| GFTMNSYGPS | VIYSDGRRTFYGDSVK | GRAAITFDS | 4.16 | 2 of 3 |

Excerpt, the final 10 entries:

| CDR-H1 | CDR-H2 | CDR-H3 | mean log10 Kd (nM) | replicates with signal |
|---|---|---|---|---|
| GFTLNSYAIS | VIYSDGRRTFYGDVVK | GRAAPTFDS | no signal | 0 of 3 |
| GFTLNSYGIS | VISSDGRRTFYGSSVK | GRAAGTFQS | 5.92 | 1 of 3 |
| NFTLNSYGIS | VNYSDGRRTFYGDSVK | GRACGTFDS | no signal | 0 of 3 |
| GFTLNSYGIS | VIYSDGRRTFMGNTVK | GRAAGTFDS | 2.24 | 3 of 3 |
| GFTLNSVGIS | VIYSDGRRTFYGDSHK | GRAAGTFDS | 3.93 | 2 of 3 |
| GFTVNSYGIS | VIYSDGRRTHYGDSVK | GQAAGTFDS | 1.68 | 3 of 3 |
| GFTLNSYGIN | VIYSEGRRTFYGDSVK | GRAAGSFDS | no signal | 0 of 3 |
| FFTLNSYGIS | VIYSDGRRTFYGDSVD | GRAARTFDS | no signal | 0 of 3 |
| GETLNSYGIS | VIYSFGRRTFYGDSVK | GRCAGTFDS | 4.26 | 2 of 3 |
| GFTMNSYGPS | VIYSDGRRTFYGDSVK | GRAAITFDS | 4.16 | 2 of 3 |

Empty control strains, which show no peptide, gave a signal in 15% of pairings with library AAYL49; the median was 4.06 and 95% of these signals were weaker than 2.83. No background was subtracted. For reference, the parent read 0.65 as the reference entry and 4.11 (one replicate of three) as a member of this library.